Consider 1 substance from patent publication US7642280B2, “Inhibitors of acyl glucosaminyl inositol amidase and methods of use” (The Regents of the University of California, priority 2001, dated 2010).

Protein sequences, listed by entry. Tags and fused reporters are not part of them. Lines headed by an entry give the natural chain unless they say otherwise; changes in a name come on top.
UniProt A0R2W9: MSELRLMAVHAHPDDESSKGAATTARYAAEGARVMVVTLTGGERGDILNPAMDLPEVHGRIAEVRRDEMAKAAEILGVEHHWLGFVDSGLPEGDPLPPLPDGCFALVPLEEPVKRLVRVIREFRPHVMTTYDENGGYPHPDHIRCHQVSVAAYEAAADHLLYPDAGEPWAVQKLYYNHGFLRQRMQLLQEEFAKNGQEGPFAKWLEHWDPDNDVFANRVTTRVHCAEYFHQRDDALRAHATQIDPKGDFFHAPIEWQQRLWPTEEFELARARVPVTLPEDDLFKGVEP

This experiment has as its target Mycobacterium smegmatis mycothiol-S-conjugate amidase (MCA) (Mycolicibacterium smegmatis, UniProt A0R2W9). The experiment can be described thus: Fluorescence-based HPLC IC50 assay, wild type M. smegmatis MCA with natural MSmB. Format: biochemical. As to conditions: wild type M. smegmatis MCA approx. 20 nM, 30 μM natural MSmB, 20 min, 31° C.; read-out: IC50 M. smeg.

As to oceanapiside aglycon [Compound 8], the concentration for half-maximal inhibition (IC50) (in general, the concentration needed to halve the response being measured) was 5 µM.
